Among the data in PubChem BioAssay (Tox21) are activation and Potency values, retold here.

Protein sequences, listed by entry. Tags and fused reporters are not part of them. Lines headed by an entry give the natural chain unless they say otherwise; changes in a name come on top.
UniProt P08659, whole entry, looked up: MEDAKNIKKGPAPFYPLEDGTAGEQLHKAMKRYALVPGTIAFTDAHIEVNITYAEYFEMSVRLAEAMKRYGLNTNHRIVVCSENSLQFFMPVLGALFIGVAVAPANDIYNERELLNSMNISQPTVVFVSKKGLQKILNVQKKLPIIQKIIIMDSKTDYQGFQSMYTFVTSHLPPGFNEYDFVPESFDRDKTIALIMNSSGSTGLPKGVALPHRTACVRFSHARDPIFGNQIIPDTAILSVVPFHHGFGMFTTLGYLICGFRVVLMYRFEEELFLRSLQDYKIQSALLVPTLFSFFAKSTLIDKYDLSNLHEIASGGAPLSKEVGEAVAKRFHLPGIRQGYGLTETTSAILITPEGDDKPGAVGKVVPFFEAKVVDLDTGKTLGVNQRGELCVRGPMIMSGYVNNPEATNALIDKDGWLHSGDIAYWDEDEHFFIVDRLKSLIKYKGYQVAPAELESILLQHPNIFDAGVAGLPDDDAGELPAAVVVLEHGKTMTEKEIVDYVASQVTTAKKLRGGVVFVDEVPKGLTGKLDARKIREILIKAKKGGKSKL
UniProt Q12809: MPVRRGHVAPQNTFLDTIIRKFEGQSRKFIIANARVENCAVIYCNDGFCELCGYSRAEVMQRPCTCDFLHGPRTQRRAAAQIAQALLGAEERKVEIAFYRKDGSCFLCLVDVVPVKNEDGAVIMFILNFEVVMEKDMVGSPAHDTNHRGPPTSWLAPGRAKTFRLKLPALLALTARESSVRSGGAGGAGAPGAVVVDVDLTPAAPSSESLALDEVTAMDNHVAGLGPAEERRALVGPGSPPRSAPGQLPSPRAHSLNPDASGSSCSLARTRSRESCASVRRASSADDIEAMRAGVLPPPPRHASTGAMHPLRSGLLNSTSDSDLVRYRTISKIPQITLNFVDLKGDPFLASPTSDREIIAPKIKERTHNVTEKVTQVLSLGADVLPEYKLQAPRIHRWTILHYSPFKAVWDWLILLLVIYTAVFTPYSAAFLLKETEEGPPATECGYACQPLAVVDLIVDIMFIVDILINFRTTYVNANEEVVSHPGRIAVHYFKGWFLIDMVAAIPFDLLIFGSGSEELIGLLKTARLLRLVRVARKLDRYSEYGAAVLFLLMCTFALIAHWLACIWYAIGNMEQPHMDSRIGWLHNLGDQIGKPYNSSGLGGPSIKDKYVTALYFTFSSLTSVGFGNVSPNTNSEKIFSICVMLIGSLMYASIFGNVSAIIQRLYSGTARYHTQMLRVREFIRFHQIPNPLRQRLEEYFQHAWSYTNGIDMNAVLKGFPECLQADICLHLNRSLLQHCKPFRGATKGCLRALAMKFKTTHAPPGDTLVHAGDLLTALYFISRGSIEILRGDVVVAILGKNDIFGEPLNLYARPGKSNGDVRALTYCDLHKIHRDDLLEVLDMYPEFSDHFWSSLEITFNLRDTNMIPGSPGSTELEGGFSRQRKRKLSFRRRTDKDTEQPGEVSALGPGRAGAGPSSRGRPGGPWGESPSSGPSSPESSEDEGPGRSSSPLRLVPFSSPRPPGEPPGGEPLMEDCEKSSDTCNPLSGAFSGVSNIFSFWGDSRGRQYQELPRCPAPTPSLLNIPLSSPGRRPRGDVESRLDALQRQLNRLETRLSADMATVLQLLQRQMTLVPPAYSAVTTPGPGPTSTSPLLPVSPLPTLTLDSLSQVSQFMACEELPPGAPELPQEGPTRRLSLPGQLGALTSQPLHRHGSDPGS

This is a selection; strong and weak results do not stand in their true shares. Results filed as inconclusive are left out. Active and inactive are the calls of the source. Unless noted, calls follow the shape of the dose curve; as a rule, active = well fitted inhibition curve with a large enough effect in the repeat runs; inconclusive = weak or mixed curves; inactive = flat fitted curve, though single readings scatter.

Assay [1] is described as follows: qHTS assay to identify small molecule agonists of the NFkB signaling pathway (AID 1159509; active = well fitted curve in the direction sought with a large enough effect in the signal ratio in the repeat runs, not every such curve was filed as active; the % refers to the signal ratio; also: % is scaled to controls: 0 for no effect and ±100 for the full control effect). Conditions: NFkB-bla ME-180 cells, beta-lactamase FRET ratio, 5 h. In a few lines: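 Agonist activity was read as beta-lactamase-driven FRET change (460 and 530 nm emission, 405 nm excitation) following 1.5 hr substrate loading at room temperature. Beforehand, ME-180 NFkB-bla reporter cells were treated with compounds for 5 hr at 37 C.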

Assay [2] concerns the target Luciferin 4-monooxygenase (Photinus pyralis) (UniProt P08659). The assay is described as follows: qHTS assay to identify small molecule inhibitors of firefly luciferase (AID 1224835). Also: potency is read from the fitted curve at half-maximal effect; nearly all actives have a fitted effect of over 25% in size. Particulars: purified P. pyralis luciferase, luminescence inhibition. In a few lines: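 Biochemical qHTS: compounds run as interplate titrations against purified firefly enzyme, with D-luciferin and ATP each at its KM concentration. Light output recorded by CCD imaging.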
On the technique in general: Quantitative high-throughput screening tests each substance at several concentrations.

Assay [3] addresses Voltage-gated inwardly rectifying potassium channel KCNH2 (Homo sapiens) (UniProt Q12809). Briefly: Human Ether-a-go-go-Related Gene (hERG) channel small molecule antagonists: fluorescence cell-based qHTS assay (AID 1671200). Also: potency is read from the fitted curve at half-maximal effect; nearly all actives have a fitted effect of over 50% in size. Conditions: hERG-U2OS cells, FluxOR thallium flux fluorescence. In a few lines:
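In this thallium-flux screen, overnight-cultured U2OS cells bearing the channel are dye-loaded in darkness for an hour, rested 10 min at room temperature, and then monitored kinetically at 480/540 nm for two minutes post-stimulus.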

On to `CCCN[C@H]1CCc2nc(N)sc2C1`, for which the activation in assay [1] (at 61 µM (top of the series)) is inactive: 0.0418%.
As to `O=c1c(O)c(-c2ccc(O)c(O)c2)oc2cc(O)cc(O)c12`, the results for the activation in assay [1] (at 61 µM (top of the series)) and in assay [1] (at 78.8 µM (top of the series)) were inactive: -0.104% and inactive: 1.21%, respectively.
As for `CN(C)c1ccc(C(=C2C=CC(=[N+](C)C)C=C2)c2ccccc2)cc1`, in assay [2], the Potency is active: 27.5 µM [middle of 4 runs].
Consider `O=C1Cc2cc(CCN3CCN(c4nsc5ccccc45)CC3)c(Cl)cc2N1`, for which, in assay [3], the Potency was active: 4.77 µM.
